Key:
[1] = target: JAK1 (h) (Homo sapiens (Human), UniProt P23458); test: In vitro activity assay of JAK1 kinase (radiometric 33P-ATP, Eurofins); assay type: biochemical; conditions: read-out: JAK1 (IC50); recombinant human JAK1
[2] = target: JAK2 (h) (Homo sapiens (Human), UniProt O60674); test: In vitro activity assay of JAK2 kinase (radiometric 33P-ATP, Eurofins); assay type: biochemical; conditions: read-out: JAK2 (IC50); recombinant human JAK2
[3] = target: JAK3 (h) (Homo sapiens (Human), UniProt P52333); test: In vitro activity assay of JAK3 kinase (radiometric 33P-ATP, Eurofins); conditions: read-out: JAK3 (IC50); recombinant human JAK3
[4] = target: TYK2 (h) (Homo sapiens (Human), UniProt P29597); test: In vitro activity assay of TYK2 kinase (radiometric 33P-ATP, Eurofins); conditions: read-out: TYK2 (IC50); recombinant human TYK2

The chains behind the UniProt entries cited, without tags or fusion partners.
UniProt P23458, whole entry: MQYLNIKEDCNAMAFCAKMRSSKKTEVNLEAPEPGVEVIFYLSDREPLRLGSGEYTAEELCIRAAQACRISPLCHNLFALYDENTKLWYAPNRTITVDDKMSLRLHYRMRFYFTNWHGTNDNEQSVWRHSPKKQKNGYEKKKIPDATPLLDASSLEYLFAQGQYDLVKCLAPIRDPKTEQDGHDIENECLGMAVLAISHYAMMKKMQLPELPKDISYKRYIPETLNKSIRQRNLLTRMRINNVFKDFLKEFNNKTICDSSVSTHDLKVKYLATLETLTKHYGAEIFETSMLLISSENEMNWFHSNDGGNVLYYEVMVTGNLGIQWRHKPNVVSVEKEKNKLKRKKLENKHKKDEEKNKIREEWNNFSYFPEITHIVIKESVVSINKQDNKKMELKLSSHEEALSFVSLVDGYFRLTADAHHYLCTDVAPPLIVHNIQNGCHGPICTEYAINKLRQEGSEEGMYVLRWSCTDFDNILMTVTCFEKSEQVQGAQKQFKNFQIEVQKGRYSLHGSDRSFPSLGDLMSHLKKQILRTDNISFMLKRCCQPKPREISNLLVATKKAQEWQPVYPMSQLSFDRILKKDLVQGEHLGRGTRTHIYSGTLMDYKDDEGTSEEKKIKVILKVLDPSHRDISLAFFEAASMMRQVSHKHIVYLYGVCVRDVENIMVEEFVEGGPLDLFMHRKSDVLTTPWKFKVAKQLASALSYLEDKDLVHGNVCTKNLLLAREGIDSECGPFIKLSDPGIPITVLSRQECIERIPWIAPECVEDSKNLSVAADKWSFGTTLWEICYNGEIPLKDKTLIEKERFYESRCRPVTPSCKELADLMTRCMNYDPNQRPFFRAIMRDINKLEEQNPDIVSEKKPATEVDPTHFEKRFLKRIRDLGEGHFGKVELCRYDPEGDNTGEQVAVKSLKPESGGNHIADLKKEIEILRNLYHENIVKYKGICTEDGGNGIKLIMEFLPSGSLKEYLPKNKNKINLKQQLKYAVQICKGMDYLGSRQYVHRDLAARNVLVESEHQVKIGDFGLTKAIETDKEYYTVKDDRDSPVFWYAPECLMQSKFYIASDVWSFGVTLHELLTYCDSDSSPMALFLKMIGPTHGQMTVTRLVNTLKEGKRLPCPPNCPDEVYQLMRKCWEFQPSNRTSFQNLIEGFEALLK
UniProt O60674, whole entry: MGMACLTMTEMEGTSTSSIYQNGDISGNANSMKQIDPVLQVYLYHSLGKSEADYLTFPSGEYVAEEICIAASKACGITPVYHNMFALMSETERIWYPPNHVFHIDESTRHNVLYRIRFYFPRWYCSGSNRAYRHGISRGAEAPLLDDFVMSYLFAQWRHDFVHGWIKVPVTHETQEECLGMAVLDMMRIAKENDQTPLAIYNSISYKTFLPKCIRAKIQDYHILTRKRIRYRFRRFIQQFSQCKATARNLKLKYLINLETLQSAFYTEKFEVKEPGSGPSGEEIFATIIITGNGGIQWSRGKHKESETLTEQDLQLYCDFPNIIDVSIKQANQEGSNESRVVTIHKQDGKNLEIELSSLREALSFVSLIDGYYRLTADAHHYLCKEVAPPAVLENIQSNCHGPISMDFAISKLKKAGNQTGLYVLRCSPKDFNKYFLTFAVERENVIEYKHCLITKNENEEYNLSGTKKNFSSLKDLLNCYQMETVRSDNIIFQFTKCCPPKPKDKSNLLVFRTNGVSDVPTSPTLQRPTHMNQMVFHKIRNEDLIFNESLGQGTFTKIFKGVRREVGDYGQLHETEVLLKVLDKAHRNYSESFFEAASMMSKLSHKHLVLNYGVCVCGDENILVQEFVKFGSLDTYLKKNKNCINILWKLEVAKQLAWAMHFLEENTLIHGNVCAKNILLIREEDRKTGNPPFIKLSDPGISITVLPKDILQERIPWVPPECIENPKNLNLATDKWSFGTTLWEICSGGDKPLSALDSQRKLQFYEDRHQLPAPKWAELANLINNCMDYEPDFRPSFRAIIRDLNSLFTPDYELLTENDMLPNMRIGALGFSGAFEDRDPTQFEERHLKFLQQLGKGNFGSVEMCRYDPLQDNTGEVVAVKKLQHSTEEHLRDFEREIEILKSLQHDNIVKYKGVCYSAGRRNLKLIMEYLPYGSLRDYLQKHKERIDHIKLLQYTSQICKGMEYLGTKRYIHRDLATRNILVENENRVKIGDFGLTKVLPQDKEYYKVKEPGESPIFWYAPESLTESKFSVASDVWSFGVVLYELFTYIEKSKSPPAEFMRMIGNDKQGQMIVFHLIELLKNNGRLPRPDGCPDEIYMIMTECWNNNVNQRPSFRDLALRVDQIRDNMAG
UniProt P52333, whole entry: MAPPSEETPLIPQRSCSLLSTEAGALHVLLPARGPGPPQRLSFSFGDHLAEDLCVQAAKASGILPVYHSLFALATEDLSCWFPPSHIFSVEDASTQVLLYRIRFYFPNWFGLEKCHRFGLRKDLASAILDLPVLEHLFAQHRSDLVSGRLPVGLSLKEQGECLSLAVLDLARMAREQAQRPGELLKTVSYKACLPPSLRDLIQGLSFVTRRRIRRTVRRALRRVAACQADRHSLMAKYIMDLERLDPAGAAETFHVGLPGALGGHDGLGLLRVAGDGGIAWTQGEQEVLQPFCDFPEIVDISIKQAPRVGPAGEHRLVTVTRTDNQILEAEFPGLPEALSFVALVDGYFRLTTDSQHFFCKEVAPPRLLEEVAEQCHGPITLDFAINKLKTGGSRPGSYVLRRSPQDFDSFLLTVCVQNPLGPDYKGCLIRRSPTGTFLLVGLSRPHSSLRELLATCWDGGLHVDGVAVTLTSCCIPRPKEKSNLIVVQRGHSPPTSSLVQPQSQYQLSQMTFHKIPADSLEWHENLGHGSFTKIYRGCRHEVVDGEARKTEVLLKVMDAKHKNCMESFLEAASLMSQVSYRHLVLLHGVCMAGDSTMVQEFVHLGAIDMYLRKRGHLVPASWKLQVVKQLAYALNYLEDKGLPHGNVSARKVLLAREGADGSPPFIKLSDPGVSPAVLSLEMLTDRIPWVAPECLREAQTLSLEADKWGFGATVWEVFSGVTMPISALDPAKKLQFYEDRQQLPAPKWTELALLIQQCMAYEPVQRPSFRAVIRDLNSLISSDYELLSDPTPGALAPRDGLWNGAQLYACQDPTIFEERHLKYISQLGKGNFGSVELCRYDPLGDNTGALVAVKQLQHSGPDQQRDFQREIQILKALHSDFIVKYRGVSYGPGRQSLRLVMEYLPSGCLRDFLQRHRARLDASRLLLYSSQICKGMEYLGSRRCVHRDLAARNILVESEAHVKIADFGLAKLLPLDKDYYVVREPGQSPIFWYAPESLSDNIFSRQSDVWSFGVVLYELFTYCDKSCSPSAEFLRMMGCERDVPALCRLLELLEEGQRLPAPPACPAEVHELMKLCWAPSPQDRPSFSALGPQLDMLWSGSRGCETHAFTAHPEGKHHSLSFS
UniProt P29597, whole entry: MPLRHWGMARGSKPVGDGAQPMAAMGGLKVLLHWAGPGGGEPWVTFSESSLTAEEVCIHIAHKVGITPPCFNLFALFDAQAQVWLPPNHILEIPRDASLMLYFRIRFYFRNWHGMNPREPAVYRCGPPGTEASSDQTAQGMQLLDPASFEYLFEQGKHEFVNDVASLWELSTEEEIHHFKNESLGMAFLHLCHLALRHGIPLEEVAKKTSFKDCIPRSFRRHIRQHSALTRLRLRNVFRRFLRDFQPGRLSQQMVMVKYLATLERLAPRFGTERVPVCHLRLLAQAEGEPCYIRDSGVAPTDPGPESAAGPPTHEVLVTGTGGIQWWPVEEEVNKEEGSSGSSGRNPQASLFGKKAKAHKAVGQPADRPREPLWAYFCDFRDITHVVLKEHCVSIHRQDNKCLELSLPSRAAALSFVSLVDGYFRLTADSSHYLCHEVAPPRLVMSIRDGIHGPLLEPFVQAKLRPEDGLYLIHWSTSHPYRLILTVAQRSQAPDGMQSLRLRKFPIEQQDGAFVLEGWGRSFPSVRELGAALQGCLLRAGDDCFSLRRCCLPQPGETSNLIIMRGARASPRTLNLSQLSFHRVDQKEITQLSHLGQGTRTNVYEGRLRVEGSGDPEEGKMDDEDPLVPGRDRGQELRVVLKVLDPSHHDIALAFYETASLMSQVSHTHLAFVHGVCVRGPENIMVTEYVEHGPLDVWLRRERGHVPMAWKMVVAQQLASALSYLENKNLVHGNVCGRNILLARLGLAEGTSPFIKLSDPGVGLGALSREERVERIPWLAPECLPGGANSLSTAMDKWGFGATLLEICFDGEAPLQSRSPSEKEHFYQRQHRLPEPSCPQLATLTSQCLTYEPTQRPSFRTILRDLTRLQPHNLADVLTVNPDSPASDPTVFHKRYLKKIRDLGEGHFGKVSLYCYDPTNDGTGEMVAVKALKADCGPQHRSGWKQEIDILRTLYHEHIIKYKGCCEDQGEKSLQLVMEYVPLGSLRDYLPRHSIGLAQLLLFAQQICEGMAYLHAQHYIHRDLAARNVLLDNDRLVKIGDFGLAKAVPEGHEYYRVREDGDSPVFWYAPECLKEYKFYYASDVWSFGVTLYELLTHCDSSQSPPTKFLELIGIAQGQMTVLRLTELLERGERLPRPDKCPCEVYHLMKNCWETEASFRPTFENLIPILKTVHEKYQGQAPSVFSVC

Structure (SMILES)	IC50 [1]	IC50 [2]	IC50 [3]	IC50 [4]
O=C(Nc1nc2cccc(C3=CCN(C(=O)C4(F)CC4)CC3)n2n1)C1CC1	132 nM	671 nM	4380 nM	462 nM
O=C(Nc1nc2nccc([C@H]3CC[C@H](NC(=O)C4CC4(F)F)CC3)c2s1)C1CC1 (some centres unmarked)	145 nM	259 nM	1170 nM	835 nM

From patent US11427581B2, “JAK inhibitor and use thereof” (ZHUHAI UNITED LABORATORIES CO., LTD., priority 2018, dated 2022)
